Laboratory results taken from patent US9169205B2, “Pyrrolidine derivatives, pharmaceutical compositions and uses thereof” (Boehringer Ingelheim International GmbH, priority 2012, dated 2015).

Chains of the proteins cited; added tags and fusions are not shown. Residues count along the entry.
UniProt O00763, 129-2458 limits assumed: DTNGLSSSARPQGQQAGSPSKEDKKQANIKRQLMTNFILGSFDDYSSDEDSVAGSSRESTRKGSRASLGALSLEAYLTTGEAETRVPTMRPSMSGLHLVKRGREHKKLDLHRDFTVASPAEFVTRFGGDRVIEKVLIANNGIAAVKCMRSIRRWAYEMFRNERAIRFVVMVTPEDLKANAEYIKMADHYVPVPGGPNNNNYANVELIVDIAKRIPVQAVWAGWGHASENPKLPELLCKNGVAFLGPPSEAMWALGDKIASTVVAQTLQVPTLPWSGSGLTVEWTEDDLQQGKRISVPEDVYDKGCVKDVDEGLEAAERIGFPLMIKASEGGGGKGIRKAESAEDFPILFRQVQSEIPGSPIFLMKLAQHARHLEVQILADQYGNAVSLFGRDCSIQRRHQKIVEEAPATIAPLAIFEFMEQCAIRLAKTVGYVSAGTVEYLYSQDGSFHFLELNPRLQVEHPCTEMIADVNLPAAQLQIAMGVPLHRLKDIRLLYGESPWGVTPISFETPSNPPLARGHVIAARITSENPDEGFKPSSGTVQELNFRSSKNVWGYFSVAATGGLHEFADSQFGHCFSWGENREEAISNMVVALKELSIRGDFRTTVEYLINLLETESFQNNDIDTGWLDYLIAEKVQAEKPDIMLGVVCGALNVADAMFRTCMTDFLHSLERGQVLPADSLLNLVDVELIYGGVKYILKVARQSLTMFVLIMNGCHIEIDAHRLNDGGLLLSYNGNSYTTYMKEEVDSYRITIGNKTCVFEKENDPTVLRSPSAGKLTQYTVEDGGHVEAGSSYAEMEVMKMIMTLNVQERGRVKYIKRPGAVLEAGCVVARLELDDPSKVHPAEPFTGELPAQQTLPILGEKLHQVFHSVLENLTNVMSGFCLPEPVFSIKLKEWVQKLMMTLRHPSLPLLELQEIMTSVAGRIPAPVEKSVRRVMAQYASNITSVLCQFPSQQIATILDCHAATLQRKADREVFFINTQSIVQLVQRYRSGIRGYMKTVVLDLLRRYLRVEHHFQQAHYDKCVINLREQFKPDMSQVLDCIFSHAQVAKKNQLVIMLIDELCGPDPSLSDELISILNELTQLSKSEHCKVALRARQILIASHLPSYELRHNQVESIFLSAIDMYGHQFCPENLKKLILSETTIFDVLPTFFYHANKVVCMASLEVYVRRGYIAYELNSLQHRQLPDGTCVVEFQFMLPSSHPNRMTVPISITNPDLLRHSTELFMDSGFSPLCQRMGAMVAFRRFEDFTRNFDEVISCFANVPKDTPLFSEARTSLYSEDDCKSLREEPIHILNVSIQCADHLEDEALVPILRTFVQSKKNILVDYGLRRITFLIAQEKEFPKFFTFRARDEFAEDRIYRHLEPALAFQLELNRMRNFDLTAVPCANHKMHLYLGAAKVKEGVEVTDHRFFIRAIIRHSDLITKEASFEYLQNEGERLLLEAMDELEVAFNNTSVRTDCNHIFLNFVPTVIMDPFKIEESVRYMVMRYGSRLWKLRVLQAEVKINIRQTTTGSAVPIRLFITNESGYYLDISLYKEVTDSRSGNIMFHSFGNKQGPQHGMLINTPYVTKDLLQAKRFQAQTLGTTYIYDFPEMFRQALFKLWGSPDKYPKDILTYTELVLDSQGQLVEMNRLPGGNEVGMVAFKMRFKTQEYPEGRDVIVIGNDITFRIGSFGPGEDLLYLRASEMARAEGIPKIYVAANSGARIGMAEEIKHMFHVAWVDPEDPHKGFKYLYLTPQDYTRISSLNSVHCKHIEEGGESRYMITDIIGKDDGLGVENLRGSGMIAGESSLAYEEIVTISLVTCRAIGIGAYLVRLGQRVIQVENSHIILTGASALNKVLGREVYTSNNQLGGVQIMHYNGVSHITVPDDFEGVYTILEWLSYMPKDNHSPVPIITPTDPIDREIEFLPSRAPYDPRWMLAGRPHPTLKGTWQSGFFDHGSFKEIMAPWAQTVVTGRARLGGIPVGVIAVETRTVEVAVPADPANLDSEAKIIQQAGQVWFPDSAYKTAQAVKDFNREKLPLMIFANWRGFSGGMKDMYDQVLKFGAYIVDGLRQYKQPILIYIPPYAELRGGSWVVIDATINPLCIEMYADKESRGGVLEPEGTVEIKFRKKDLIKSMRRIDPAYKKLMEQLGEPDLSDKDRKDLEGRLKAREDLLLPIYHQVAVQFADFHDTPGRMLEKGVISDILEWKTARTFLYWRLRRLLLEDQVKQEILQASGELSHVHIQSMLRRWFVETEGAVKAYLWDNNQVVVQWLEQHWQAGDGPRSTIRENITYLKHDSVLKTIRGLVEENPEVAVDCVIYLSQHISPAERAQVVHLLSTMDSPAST

Target: human ACC2 (Homo sapiens (Human), UniProt O00763)
Assay: ACC2 assay (spectrophotometric 384 well assay, NADH-linked kinetic method)
Settings: hACC2 construct lacking 128 N-terminal amino acids, 25° C., 340 nm

Row | Structure (SMILES) | IC50 [µM]
1 | CC(=O)N[C@@H](C)c1ccc(O[C@@H]2CCN(c3ccc(Cl)c(Cl)c3)C2)cc1 | 0.385
2 | C[C@H](NC(=O)N(C)C)c1ccc(O[C@@H]2CCN(c3ccc(OCC4CC4(F)F)cc3F)C2)cc1 (some centres unmarked) | 0.389
